Experimental data reported in ChEMBL document CHEMBL1149542, “Carbonic anhydrase inhibitors: inhibition of human, bacterial, and archaeal isozymes with benzene-1,3-disulfonamides--solution and crystallographic studies” (Bioorg Med Chem Lett, 2007).

Amino acid sequences for entries named in this document (tags omitted). A change or cut given only in a name is not applied to a line headed by its entry.
UniProt Q9D6N1: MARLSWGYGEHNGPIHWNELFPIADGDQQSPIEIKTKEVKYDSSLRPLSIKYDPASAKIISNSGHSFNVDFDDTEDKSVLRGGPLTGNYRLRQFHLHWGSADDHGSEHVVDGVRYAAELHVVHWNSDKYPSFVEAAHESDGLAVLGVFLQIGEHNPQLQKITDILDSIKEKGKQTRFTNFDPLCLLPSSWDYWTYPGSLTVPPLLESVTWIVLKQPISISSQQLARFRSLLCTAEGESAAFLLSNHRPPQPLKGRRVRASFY

Target: Carbonic anhydrase 13 (Mus musculus) (UniProt Q9D6N1)
Assay: Inhibition of mouse CA13

Kinact: 19 nM
SMILES: CC(=O)/N=c1/sc(S(N)(=O)=O)nn1C
